Assay results taken from paper PMC9571408, “Synthesis of Isomeric 3-Benzazecines Decorated with Endocyclic Allene Moiety and Exocyclic Conjugated Double Bond and Evaluation of Their Anticholinesterase Activity” (Molecules, 2022).
Values after ≈ are worked out from the molar mass of the structure shown. Values joined by “and” are separate entries in the source; they are usually repeats but may differ in a detail not shown here. Equal entries are not always repeated.

Amino acid sequences for entries named in this document (tags omitted). Residues count along the entry.
UniProt P22303, 32-614 limits assumed: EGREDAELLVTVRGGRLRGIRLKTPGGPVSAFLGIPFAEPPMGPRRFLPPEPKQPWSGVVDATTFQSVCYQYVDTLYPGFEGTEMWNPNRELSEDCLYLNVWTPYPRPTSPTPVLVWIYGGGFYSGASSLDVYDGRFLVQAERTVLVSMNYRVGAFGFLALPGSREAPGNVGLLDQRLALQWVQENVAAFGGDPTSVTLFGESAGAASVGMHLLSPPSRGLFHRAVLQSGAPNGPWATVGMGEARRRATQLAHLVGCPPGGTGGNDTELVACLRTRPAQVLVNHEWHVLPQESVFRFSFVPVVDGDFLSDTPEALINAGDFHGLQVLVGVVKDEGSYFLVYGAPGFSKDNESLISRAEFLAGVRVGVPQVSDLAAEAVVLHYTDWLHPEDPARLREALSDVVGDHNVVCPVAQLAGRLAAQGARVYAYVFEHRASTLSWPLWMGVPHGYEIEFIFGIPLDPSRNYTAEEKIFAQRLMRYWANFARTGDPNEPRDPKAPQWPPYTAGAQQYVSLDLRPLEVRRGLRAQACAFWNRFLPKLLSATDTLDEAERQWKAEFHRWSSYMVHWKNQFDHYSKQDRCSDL
UniProt P27338, whole entry: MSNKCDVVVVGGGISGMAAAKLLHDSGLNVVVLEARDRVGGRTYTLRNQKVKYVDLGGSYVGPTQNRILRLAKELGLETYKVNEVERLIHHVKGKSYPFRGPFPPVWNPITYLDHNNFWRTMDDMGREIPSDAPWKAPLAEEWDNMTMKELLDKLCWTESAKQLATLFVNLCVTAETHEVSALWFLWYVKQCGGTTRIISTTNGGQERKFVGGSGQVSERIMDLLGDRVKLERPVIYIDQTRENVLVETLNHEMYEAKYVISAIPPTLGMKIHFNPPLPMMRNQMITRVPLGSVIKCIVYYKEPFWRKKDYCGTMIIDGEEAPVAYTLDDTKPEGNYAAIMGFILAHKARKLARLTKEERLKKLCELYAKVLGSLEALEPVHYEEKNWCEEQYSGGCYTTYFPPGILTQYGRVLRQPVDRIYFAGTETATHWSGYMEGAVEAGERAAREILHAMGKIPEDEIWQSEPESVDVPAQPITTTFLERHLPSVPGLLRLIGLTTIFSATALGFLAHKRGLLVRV
UniProt P21397, whole entry: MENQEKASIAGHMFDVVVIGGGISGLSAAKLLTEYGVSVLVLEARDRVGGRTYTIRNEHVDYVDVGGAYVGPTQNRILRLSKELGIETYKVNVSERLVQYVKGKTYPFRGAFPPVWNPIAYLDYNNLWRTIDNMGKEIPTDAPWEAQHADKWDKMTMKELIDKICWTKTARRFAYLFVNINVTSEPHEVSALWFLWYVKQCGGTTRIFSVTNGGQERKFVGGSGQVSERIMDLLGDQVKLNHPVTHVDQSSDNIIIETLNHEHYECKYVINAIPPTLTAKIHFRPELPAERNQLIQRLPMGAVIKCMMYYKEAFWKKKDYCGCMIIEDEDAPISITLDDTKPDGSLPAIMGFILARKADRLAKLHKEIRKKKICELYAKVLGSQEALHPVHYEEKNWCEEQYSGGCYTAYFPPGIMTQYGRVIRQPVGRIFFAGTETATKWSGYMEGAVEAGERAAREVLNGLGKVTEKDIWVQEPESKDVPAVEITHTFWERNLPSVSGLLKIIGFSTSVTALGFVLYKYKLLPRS

Key:
[1] = Hydrolytic stability in water-buffered solution by U-HPLC; settings: PBS pH 7.4, 0.15 M KCl, 37 °C (table footnote)
human recombinant AChE = human recombinant AChE (Homo sapiens, UniProt P22303); settings: cited from earlier work
[2] = target: human recombinant monoamine oxidase B (Homo sapiens, UniProt P27338); settings: cited from earlier work
[3] = target: human recombinant monoamine oxidase A (Homo sapiens, UniProt P21397); settings: cited from earlier work
P-gp = settings: earlier P-gp assay; reference not given; cited from earlier work
[4] = Kinetic aqueous solubility by U-HPLC; settings: PBS pH 7.4, 0.15 M KCl, 37 °C

In the case of `COC(=O)C1=CN(C)CCc2cc(OC)c(OC)cc2C(c2ccc(OC)cc2)=C=C1c1ccccc1`, the Hydrolytic half-life [1] is listed as >12 h, the IC50 (human recombinant AChE) is listed as 5.05 µM and the Ki (human recombinant AChE) is listed as 4.5 µM and 4.45 µM. For the same compound, the “hMAO-B % inhibition at 10 μM” value [2] was “(24 ± 5) %”, the “hMAO-A % inhibition at 10 μM” value [3] was “(20 ± 5) %” and the P-gp inhibition (P-gp) was “potent inhibitors of P-gp in the nanomolar range”. For the same compound, the Solubility [4] was 0.200 ± 0.015 µM (≈ 0.0995 µg/mL).
